# Earlier results as cited in patent US20070265194A1, “Agents for the treatment of viral infections” (priority 2000, published 2007).
# Test system: mouse thymus cell lines
# Conditions: normal cell growth and metabolism; cited from earlier work
substance,measurement,value
4-hydroxy-5-iodo-3-nitrophenylacetyl-L-leucinyl-L-leucinyl-L-leucine vinyl sulfone,concentration tolerated in continuous presence,10 µM
